This is an account of results in US20130345115A1.

Test [1] deals with (Δ1-28) H4 nucleosome (mononucleosome with FLAG-HA-tagged tailless human H4 lacking the first 28 amino acids) (human; human (293T cells)) (UniProt P62805). Briefly: MudPIT, co-purification.
The target of test [2] is Wild type H4 nucleosome (mononucleosome with FLAG-HA-tagged wild type human H4) (human; human (293T cells)) (UniProt P62805). The test is described as follows: MudPIT, co-purification.

In test [1], “DNA (cytosine-5-)-methyltransferase 3 alpha (from UniProt Q9Y6K1 1-912) (enzyme)” had an amino acid coverage of 23.7% and a peptide count of 8 peptides. In test [2], this substance returned an amino acid coverage of 29% and a peptide count of 11 peptides.
For “DNA (cytosine-5-)-methyltransferase 3 beta (from UniProt Q9UBC3 1-853) (enzyme)” the same measures were 30.6%, 11 peptides, 31.8% and 12 peptides.
For Histone H4 (from UniProt P62805 2-103) the same measures were 62.7%, 5 peptides, 84.6% and 7 peptides.
